Measured values from patent publication US20210340500A1, “METHOD FOR PRODUCING INTESTINAL CELLS FROM PLURIPOTENT STEM CELLS” (TOKYO INSTITUTE OF TECHNOLOGY, priority 2018, published 2021).

By UniProt entry, the sequences of proteins in these tests, tags left out.
UniProt P08183, whole entry: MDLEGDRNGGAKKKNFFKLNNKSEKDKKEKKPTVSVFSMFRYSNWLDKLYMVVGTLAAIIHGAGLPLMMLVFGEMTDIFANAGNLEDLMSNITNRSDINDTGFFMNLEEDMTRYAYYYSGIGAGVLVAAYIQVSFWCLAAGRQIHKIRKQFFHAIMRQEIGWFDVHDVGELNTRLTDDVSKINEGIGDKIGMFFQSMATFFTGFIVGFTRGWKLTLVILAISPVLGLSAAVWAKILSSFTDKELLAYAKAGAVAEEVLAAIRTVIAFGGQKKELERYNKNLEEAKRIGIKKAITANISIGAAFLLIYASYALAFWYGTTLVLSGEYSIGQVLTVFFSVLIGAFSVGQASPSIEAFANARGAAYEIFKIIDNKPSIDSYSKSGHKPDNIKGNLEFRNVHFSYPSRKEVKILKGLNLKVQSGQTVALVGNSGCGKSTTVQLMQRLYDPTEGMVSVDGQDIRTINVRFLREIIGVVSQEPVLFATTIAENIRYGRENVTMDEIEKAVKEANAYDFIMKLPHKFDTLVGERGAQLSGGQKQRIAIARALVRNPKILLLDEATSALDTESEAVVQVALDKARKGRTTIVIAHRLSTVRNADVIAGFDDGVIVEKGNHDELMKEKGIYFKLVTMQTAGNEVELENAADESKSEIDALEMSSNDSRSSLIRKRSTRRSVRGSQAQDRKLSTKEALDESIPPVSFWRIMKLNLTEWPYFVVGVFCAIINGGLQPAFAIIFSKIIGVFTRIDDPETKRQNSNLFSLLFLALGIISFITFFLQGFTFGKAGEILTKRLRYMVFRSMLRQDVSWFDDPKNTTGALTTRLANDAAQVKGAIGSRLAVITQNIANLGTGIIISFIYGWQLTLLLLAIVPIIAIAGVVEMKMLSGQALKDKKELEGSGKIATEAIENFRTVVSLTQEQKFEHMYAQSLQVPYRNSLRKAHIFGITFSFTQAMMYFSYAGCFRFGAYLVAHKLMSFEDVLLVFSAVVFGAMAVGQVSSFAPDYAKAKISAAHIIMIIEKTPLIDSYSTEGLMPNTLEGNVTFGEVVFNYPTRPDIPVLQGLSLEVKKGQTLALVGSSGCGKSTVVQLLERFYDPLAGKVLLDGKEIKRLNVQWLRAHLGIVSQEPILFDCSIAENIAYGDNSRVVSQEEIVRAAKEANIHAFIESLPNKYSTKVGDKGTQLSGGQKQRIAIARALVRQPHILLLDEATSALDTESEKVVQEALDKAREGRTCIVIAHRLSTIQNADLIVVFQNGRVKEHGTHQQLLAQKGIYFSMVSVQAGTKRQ

Molecular target: P-gp (Homo sapiens, UniProt P08183)
Details: hiPS-enterocytes cultured in M3-1 or M3-2

rhodamine 123
P-gp-mediated efflux of substrate: exhibited P-gp-mediated efflux transporter activity to excrete rhodamine 123 substrate
